Measurements as given in ChEMBL document CHEMBL4680247, “Design, synthesis, and biological evaluation of 3-amino-2-oxazolidinone derivatives as potent quorum-sensing inhibitors of Pseudomonas aeruginosa PAO1” (Eur J Med Chem, 2020).

Assays:
Pseudomonas aeruginosa [1] = conditions: PAO1, time 18.0 hrs
Pseudomonas aeruginosa [2] = conditions: PAO1, time 2.0 day

In the case of COLISTIN SULFATE, the MIC (Pseudomonas aeruginosa [1]) is reported as 4 µg/mL and the MIC (Pseudomonas aeruginosa [2]) is reported as 64 µg/mL.
